Measurements reported in PubChem BioAssay AID485281 (National Center for Advancing Translational Sciences (NCATS), 2010).
Only a part is listed here, and it is no random draw. Records with an inconclusive call do not appear. The source made the active and inactive calls. The call rests on the fitted dose curve; in most records, active means well fitted inhibition curve with a large enough effect; inconclusive means small, poorly fitted or top-dose-only effect; inactive means no such curve, though single readings can be large or run the other way.

Amino acid sequences for entries named in this document (tags omitted). Residues count along the entry.
UniProt P02791, 2-175 limits assumed: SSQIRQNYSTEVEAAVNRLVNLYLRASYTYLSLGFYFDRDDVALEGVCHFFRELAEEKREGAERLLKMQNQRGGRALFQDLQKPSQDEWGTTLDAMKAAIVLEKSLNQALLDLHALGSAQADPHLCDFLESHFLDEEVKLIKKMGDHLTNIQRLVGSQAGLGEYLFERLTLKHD

The compounds below were run against Ferritin light chain (Equus caballus) (UniProt P02791) (assay: qHTS Assay for Identification of Novel General Anesthetics). Conditions: apoferritin/1-aminoanthracene competitive binding, fluorescence; at 77.5 µM (top of the series) unless noted.
Further: nearly all actives have a fitted effect of over 20% in size.
On the % scale 0 is the no-effect control and ±100 the full control effect.

Compound | activity change, negative = displacement
CCOC(=O)c1ccc(NP(C)(=O)Oc2ccccc2)cc1 (stereo not given) | inactive: -3.24%
Cc1ccc(NP(C)(=O)Oc2ccccc2)c(C)c1 (stereo not given) | inactive: -2%
COc1ccccc1OP(C)(=O)Nc1ccc(C)cc1 (stereo not given) | inactive: -8.48%
COc1ccc(OP(C)(=O)Nc2cccc(F)c2)cc1 (stereo not given) | inactive: -3.89%
COc1ccccc1OP(C)(=O)Nc1cc(Cl)ccc1C (stereo not given) | inactive: -13.5%
Cc1cc(C)cc(OP(C)(N)=O)c1 (stereo not given) | inactive: -3.41%
O=C(O)C1(O)c2ccccc2-c2ccccc21 | inactive: -1.26%
O=C(O)C(O)(c1ccccc1)c1ccccc1 | inactive: 7.77%
Cc1cccc(C)c1OP(C)(N)=O (stereo not given) | inactive: 0.591%
CC(C)(C)c1ccc(OP(C)(=O)Nc2ccc(SC(F)(F)F)cc2)cc1 (stereo not given) | inactive: 5.56%
CCN(CC)CCCOC(=O)C(O)(c1ccccc1)c1ccccc1 | inactive: 1.9%
CCOP(C)(=S)SCC(=O)NC(C)C(=O)O (stereo not given) | inactive: -2.15%
CCOC(=O)c1ccc(NP(C)(=O)Oc2ccc(OC)cc2)cc1 (stereo not given) | inactive: 5.44%
CP(=O)(Nc1ccccn1)Oc1ccc(Cl)cc1 (stereo not given) | inactive: -21.6%
Cc1cccc(C)c1OP(C)(=O)Nc1ccc(SC(F)(F)F)cc1 (stereo not given) | inactive: -2.28%
CP(=O)(Nc1ccc(SC(F)(F)F)cc1)Oc1ccc(Cl)cc1 (stereo not given) | inactive: -15.4%
Cc1cc(C)cc(OP(C)(=O)Nc2ccc(SC(F)(F)F)cc2)c1 (stereo not given) | inactive: -4.37%
CCc1ccc(OP(C)(=O)N2CCN(c3ccc([N+](=O)[O-])cc3)CC2)cc1 (stereo not given) | inactive: -13.9%
CP(=O)(NC(=O)Nc1ccccc1)Oc1ccccc1 (stereo not given) | inactive: -9.86%
CP(=S)(Nn1cnnc1)Oc1ccccc1 (stereo not given) | inactive: -6.61%
COc1ccccc1OP(C)(=O)Nc1ccccc1 (stereo not given) | inactive: -4.97%
CP(=O)(Nc1ccccc1Br)Oc1ccccc1 (stereo not given) | inactive: -15.1%
COc1ccccc1OP(C)(=O)Nc1c(C)cccc1C (stereo not given) | inactive: -21.5%
CN1CCCCC1COC(=O)C1(O)c2ccccc2CCc2ccccc21 (stereo not given) | inactive: -13.1%
CP(=O)(Nc1ccc(SC(F)(F)F)cc1)Oc1ccccc1 (stereo not given) | inactive: 1.68%
O=[N+]([O-])c1cc([N+](=O)[O-])c(Nc2nnnn2CCO)c([N+](=O)[O-])c1 | inactive: 9.05%
Cc1nc2ccc3ccccc3c2s1.O=[N+]([O-])c1cc([N+](=O)[O-])c(O)c([N+](=O)[O-])c1 | inactive: -22.1%

Compound | activity change, negative = displacement
O=[N+]([O-])c1cc([N+](=O)[O-])c(-n2nnc3ccccc32)c([N+](=O)[O-])c1 | inactive: -21.4%
CC(C)N(CCCl)C(C)C | inactive: 0.682%
CP(=O)(Nc1cccc(Br)c1)Oc1ccccc1 (stereo not given) | inactive: -5.44%
Cc1cc(C)cc(OP(C)(=O)Nc2ccccn2)c1 (stereo not given) | inactive: -19%
Cc1ccc(C)c(NP(C)(=O)Oc2ccccc2)c1 (stereo not given) | inactive: 4.96%
COc1ccccc1OP(C)(=O)Nc1cccc(Br)c1 (stereo not given) | inactive: -9.94%
Cc1cc(C)cc(OP(C)(=O)Nc2ccc(C)cc2C)c1 (stereo not given) | inactive: -19%
CCOC(=O)c1ccc(NP(C)(=O)Oc2cc(C)cc(C)c2)cc1 (stereo not given) | inactive: 5.41%
O=[N+]([O-])OCC(CO[N+](=O)[O-])(CO[N+](=O)[O-])CO[N+](=O)[O-] | inactive: 5.4%
CC1=NCCc2c1[nH]c1ccccc21.O=[N+]([O-])c1cc([N+](=O)[O-])c(O)c([N+](=O)[O-])c1 | inactive: 25.9%
CCN(CC)CCCOC(=O)C(O)(c1ccccc1)C1CCCCC1 (stereo not given) | inactive: -10%
CCCCCOc1ccc(NP(C)(=O)Oc2ccc(Cl)cc2Cl)cc1 (stereo not given) | inactive: -17.5%
CP(=O)(Nc1ccccc1)Oc1ccc(F)cc1 (stereo not given) | inactive: -6.5%
CCOC(=O)c1ccc(NP(C)(=O)Oc2ccc(F)cc2)cc1 (stereo not given) | inactive: -3.11%
O=C(OCCN1CCN(CCOCc2ccccc2)CC1)C(O)(c1ccccc1)c1ccccc1 | inactive: -12%
CC(C)c1ccc(OP(C)(=O)Nc2ccc(SC(F)(F)F)cc2)cc1 (stereo not given) | inactive: -12.5%
CP(=O)(Nc1ccccc1F)Oc1ccccc1 (stereo not given) | inactive: -13.7%
CP(=O)(Nc1ccc2c(c1)OCCO2)Oc1ccccc1 (stereo not given) | inactive: -11.1%
CCN(CCCl)Cc1ccccc1C | inactive: -3.62%
Cc1ccccc1NP(C)(=O)Nc1ccccc1C | inactive: 1.83%
CP(=O)(Nc1ccc(SC(F)(F)F)cc1)Oc1ccc(F)cc1 (stereo not given) | inactive: 3.67%
CCOP(C)(=S)SCC(=O)NC(C)(CC)C(=O)O (stereo not given) | inactive: 2.46%
Cc1cc(-c2cccc3ccccc23)c(C)cn1.O=[N+]([O-])c1cc([N+](=O)[O-])c(O)c([N+](=O)[O-])c1 | inactive: 2.24%
O=[N+]([O-])c1ccc(OP2(=O)COCCO2)cc1 (stereo not given) | inactive: -0.699%
COc1ccc(OP(C)(=O)Nc2cccc(Br)c2)cc1 (stereo not given) | inactive: -9%
COc1ccc(NP(C)(=O)Oc2ccccc2OC)cc1 (stereo not given) | inactive: -5.13%
CN(C)CCOC(=O)C(O)(c1ccccc1)C1CCCCC1 (stereo not given) | inactive: -0.903%

Compound | activity change, negative = displacement
C/C1=C2N=C(/C=C3N=C(/C(C)=C4\[N-][C@@](C)([C@H]5N=C1[C@@](C)(CCC(=O)NC[C@H](C)OP(=O)([O-])O[C@@H]1[C@H](O)[C@H](n6cnc7cc(C)c(C)cc76)O[C@@H]1CO)[C@@H]5CC(N)=O)[C@](C)(CC(N)=O)[C@H]4CCC(N)=O)[C@@](C)(CC(N)=O)[C@@H]\3CCC(N)=O)C(C)(C)[C@@H]/2CCC(N)=O.[C-]#N.[Co+3] | inactive: -7.58% [at 29.3 µM]
CP(=O)(OC12CC3CC(CC(C3)C1)C2)OC12CC3CC(CC(C3)C1)C2 | inactive: -15.3%
CCOC(=O)c1ccc(NP(C)(=O)Oc2ccc(Cl)cc2)cc1 (stereo not given) | inactive: -3.95%
CP(=O)(Nc1ccc(Cl)cc1)Oc1ccc(F)cc1 (stereo not given) | inactive: -6.58%
CC(C)(C)c1ccc(OP(C)(=O)O)cc1 | inactive: -8.56%
COc1ccccc1OP(C)(=O)Nc1ccccc1Br (stereo not given) | inactive: -9.77%
CN(C)C(=O)c1c([N+](=O)[O-])cc([N+](=O)[O-])cc1[N+](=O)[O-] | inactive: -3.52%
COc1ccc(OP(C)(=O)Nc2ccc(Br)cc2)cc1 (stereo not given) | inactive: -6.65%
CCN(CC)CC(O)COC(=O)C(O)(c1ccccc1)C1CCCCC1 (stereo not given) | inactive: -7.87%
CCc1ccc(OP(C)(=O)Nc2cccnc2)cc1 (stereo not given) | inactive: -7%
CP(=O)(Oc1ccccc1)N1CCOC1=O (stereo not given) | inactive: -5.29%
OCCSCCO | inactive: -0.446%
O=C(OCCCN1CCCC1)C(O)(c1ccccc1)C1CCCCC1 (stereo not given) | inactive: 7.8%
COc1ccccc1OP(C)(=O)Nc1c(C)n(C)n(-c2ccccc2)c1=O (stereo not given) | inactive: -11.5%
Cc1c(NP(C)(=O)Oc2ccc(C(C)C)cc2)c(=O)n(-c2ccccc2)n1C (stereo not given) | inactive: -12.3%
CCc1ccc(OP(C)(=O)O)cc1 | inactive: -1.03%
CP(=O)(Nc1ccccn1)Oc1ccccc1 (stereo not given) | inactive: 6.34%
COc1ccccc1OP(C)(=O)Nc1ccc(Br)cc1 (stereo not given) | inactive: -1.41%
CN(C)CCOC(=O)C(O)(c1ccccc1)C1CCCC1 (stereo not given) | inactive: -5.88%
COc1ccc(OP(C)(=O)Nc2ccccn2)cc1 (stereo not given) | inactive: 0.58%
Cc1nc2ccc3ccccc3c2o1.O=[N+]([O-])c1cc([N+](=O)[O-])c(O)c([N+](=O)[O-])c1 | inactive: -20.2%
CP(=O)(OCCOc1ccccc1)OCCOc1ccccc1 | inactive: -21.8%
CP(=O)(Nc1ccc(Cl)cc1Cl)Oc1ccccc1 (stereo not given) | inactive: -11.8%
Cc1cc(C)cc(OP(C)(=O)Nc2cccc(C(F)(F)F)c2)c1 (stereo not given) | inactive: -22.3%
COc1ccc(OP(C)(=O)Nc2ccccc2Br)cc1 (stereo not given) | inactive: 1.26%
COc1ccccc1OP(C)(=O)Nc1ccc(C)c(C)c1 (stereo not given) | inactive: -11%
